High-throughput results: PubChem BioAssay, Broad Institute
S100A4 inh HTS: inhibitors of human S100A4 binding to myosin IIA peptide. P26447. S100A4/TAMRA-MyoIIA peptide fluorescence polarization. inhibition, % at 10.7 µM. hit rate 0.14% among 360,000. AID 652163;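 active means mean inhibition of at least 70% across replicates, with every replicate also reaching that level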
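Test system – S100A4 monomer (human) · Compound – single-point compound testing · Schedule – 5 min incubation before reading · Probe or stimulus – TAMRA-labelled myosin IIA heavy-chain peptide probe, 5 nM · Benchmarks – neutral control DMSO, positive control TFP · Medium – Calcium-containing HEPES buffer, pH 7.2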
E-sel inducer: induces E-selectin expression in human endothelial cells | P16581 | AID 686992 | HUVEC E-selectin immunofluorescence imaging; normalized: neutral wells 0, TNF-alpha wells 100 | hit rate 0.37% among 260,000 | activation, % at 7.58 µM;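 active means mean E-selectin-positive cell signal at least 10% of the positive control, reached in at least 60% of replicates, without over 20% cell loss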
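material = human umbilical vein endothelial cells (HUVEC), E-selectin induction | quantity = 3,000 cells/well | medium = EGM-2 growth medium on 0.1% gelatin-coated wells | technique = immunofluorescence imaging | read-out basis = % PE-positive cells | control set = TNF-alpha positive control, DMSO neutral control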
ERAP1 inh: ERAP1 (human) enzyme inhibition. recombinant ERAP1, Leu-AMC fluorescence, 60 min. inhibition, % at 10.7 µM. hit rate 0.15% among 340,000;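 active means mean replicate inhibition of at least 30%, or all replicates individually reaching that 30% level; inactive means mean below 30% and not every replicate reaching it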;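 further: 0% = neutral control wells and 100% = L-leucinethiol positive control wells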
ARNT-TACC3 inh: ARNT/TACC3 interaction disruption. Q9Y6A5. AlphaScreen His-ARNT PAS-B/GST-TACC3 binding, luminescence; TACC3 fragment carries E629A point mutation. hit rate 0.66% among 390,000. inhibition, % at 9.99 µM. AID 623870;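 active means mean inhibition of replicates at least 50% and at least half of replicates each reaching 50%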;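 further: 0% = complete ARNT plus TACC3 wells and 100% = ARNT alone without TACC3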
MLL AF4-AF9 inh: inhibitors of human MLL-AF4/AF9 interaction; AID 651704; hit rate 0.47% among 350,000; AlphaScreen, biotin-AF4 peptide binding to FLAG-AF9; inhibition, % at 10 µM; P42568;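 active means every replicate reaching a set inhibition limit, whatever the replicate mean, cut at about 25% in these data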;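 further: 0% = plate neutral control median and 100% = total signal loss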
Yeast UUG start: modulators of yeast start codon fidelity, primary screen, whole organism, S. cerevisiae, single point, plate reader. S. cerevisiae UUG-firefly luciferase reporter, luminescence/redox ratio. activity score, % at 18.7 µM. 350,000 tested, 0.13% active;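 active = replicate mean at a twofold rise or more, about +100% in these data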;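 also: firefly luciferase made from a UUG start codon reports start codon fidelity; reporter light over untreated wells divided by growth signal over untreated wells; some hits fall short of that in this replicate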
Numbers without * were called inactive. In the library only some 1.3% were active in any assay of this set; here they are far more common.

Results for CC(C)CCN1C(=O)c2cccc3c(N)ccc(c23)C1=O ?
S100A4 inh HTS: 1; E-sel inducer: 26*; ERAP1 inh: 1; ARNT-TACC3 inh: -93; MLL AF4-AF9 inh: -57; Yeast UUG start: -23

What do the screens show for `COc1ccccc1CN1CC(C(=O)NCCCc2ccc(F)cc2)CCC1=O` (stereo not drawn)?
S100A4 inh HTS: -4; ERAP1 inh: -2; ARNT-TACC3 inh: 7; MLL AF4-AF9 inh: 42*; Yeast UUG start: 2

Results for COc1ccccc1CCNC(=O)C1CCC(=O)N(Cc2ccccc2OC)C1 (stereo not drawn) ?
S100A4 inh HTS: 5; E-sel inducer: 0; ERAP1 inh: -1; ARNT-TACC3 inh: -4; MLL AF4-AF9 inh: 2; Yeast UUG start: 4

How did COc1cc(S(=O)(=O)Nc2ccc(C)cc2)ccc1N=Cc1c(C)[nH]n(-c2ccc(C)cc2)c1=O do in these assays?
S100A4 inh HTS: 1; E-sel inducer: 0; ERAP1 inh: -5; ARNT-TACC3 inh: -5; MLL AF4-AF9 inh: -3

Results for COc1cc(S(=O)(=O)Nc2ccc(C)cc2)ccc1N=Cc1c(C)c(C#N)c(=O)n(C)c1O ?
S100A4 inh HTS: 80*; ERAP1 inh: 5; MLL AF4-AF9 inh: -1

What do the screens show for `CCCN(C)C[C@H]1Oc2ncc(-c3cccnc3)cc2C(=O)N([C@H](C)CO)C[C@H]1C`?
S100A4 inh HTS: -10; E-sel inducer: -1; ERAP1 inh: 0; ARNT-TACC3 inh: 1; MLL AF4-AF9 inh: -3; Yeast UUG start: -10

Results for O=C(NCCO)c1cccc2c1C(=O)c1ccccc1-2 ?
ARNT-TACC3 inh: -16

How did O=C(O)CCNc1ccc(NCCC(=O)O)c2c1C(=O)c1ccccc1C2=O do in these assays?
S100A4 inh HTS: 10; ERAP1 inh: 4; MLL AF4-AF9 inh: 32*

Results for COc1ccccc1NCCC(=O)O ?
S100A4 inh HTS: -6; E-sel inducer: 0; ERAP1 inh: 3; ARNT-TACC3 inh: 0; MLL AF4-AF9 inh: 2

Results for O=C1c2cccc(NCCNCCO)c2C(=O)c2cccc(NCCNCCO)c21 ?
S100A4 inh HTS: 16; E-sel inducer: 21; ERAP1 inh: 1; ARNT-TACC3 inh: 47*; MLL AF4-AF9 inh: 46*

How did C[C@H]1CN([C@@H](C)CO)C(=O)c2cc(NS(=O)(=O)c3cn(C)cn3)ccc2O[C@H]1CN(C)S(C)(=O)=O do in these assays?
S100A4 inh HTS: -13; E-sel inducer: 10; ERAP1 inh: 1; ARNT-TACC3 inh: 1; MLL AF4-AF9 inh: -1; Yeast UUG start: -17

Results for COC(=O)c1cc(=O)n(-c2ccc(F)cc2)c(=Nc2ccc(F)cc2)s1 ?
S100A4 inh HTS: 2; E-sel inducer: 0; ERAP1 inh: 7; ARNT-TACC3 inh: -1; MLL AF4-AF9 inh: 27*; Yeast UUG start: -10

Results for CCN(CC)c1ccc(NC(=O)CN(C)Cc2cccs2)cc1 ?
S100A4 inh HTS: 10; E-sel inducer: 25; ERAP1 inh: 1; MLL AF4-AF9 inh: 27*; Yeast UUG start: -11

What do the screens show for `CCN(CC)c1ccc(/C=N/NC(=O)c2ccco2)c(O)c1`?
S100A4 inh HTS: 13; ERAP1 inh: 3; ARNT-TACC3 inh: 74*; MLL AF4-AF9 inh: 15

Results for CCN(CC)c1ccc(/C=N/NC(=O)Cc2cccs2)c(O)c1 ?
ARNT-TACC3 inh: 32*; Yeast UUG start: -5

Results for COc1cccc(-c2ccc3n(c2=O)C[C@@H]2[C@@H](CO)[C@H](C(=O)N(C)C)N(C(=O)C4CC4)[C@H]32)c1 ?
S100A4 inh HTS: 1; E-sel inducer: 0; ERAP1 inh: -2; ARNT-TACC3 inh: -1; MLL AF4-AF9 inh: 0

Results for CC1=CC(C)(C)N2C(=O)C(=O)c3cc(OC(=O)c4ccco4)cc1c32 ?
S100A4 inh HTS: 2; ERAP1 inh: 1; ARNT-TACC3 inh: 7; MLL AF4-AF9 inh: 31*

How did Cc1ccc(C2=NN(C(=S)Nc3ccccc3)C(c3ccco3)C2)cc1 (stereo not drawn) do in these assays?
ARNT-TACC3 inh: -1; Yeast UUG start: -19

Results for C=CCNC(=S)N1N=C(c2ccco2)CC1c1ccco1 (stereo not drawn) ?
S100A4 inh HTS: 1; ERAP1 inh: -3; ARNT-TACC3 inh: active; MLL AF4-AF9 inh: 9; Yeast UUG start: 7

How did CC(Sc1nc(-c2ccccc2)cc(C(F)(F)F)n1)C(=O)N1CCCC1 (stereo not drawn) do in these assays?
S100A4 inh HTS: -1; E-sel inducer: 3; ERAP1 inh: -4; ARNT-TACC3 inh: -13; MLL AF4-AF9 inh: 49*; Yeast UUG start: -24

How did CC(Sc1nc(-c2ccccc2)cc(C(F)(F)F)n1)C(=O)N1CCOCC1 (stereo not drawn) do in these assays?
Yeast UUG start: 3

How did Brc1ccc2oc(-c3ccn[nH]3)cc2c1 do in these assays?
S100A4 inh HTS: 14; E-sel inducer: 74*; MLL AF4-AF9 inh: -3; Yeast UUG start: -15

Results for O=c1oc2ccc(Br)cc2cc1-c1nc2ccccc2o1 ?
S100A4 inh HTS: -1; ERAP1 inh: -1; ARNT-TACC3 inh: 3; MLL AF4-AF9 inh: -4; Yeast UUG start: 2

How did CCOCC(=O)Nc1nnc(C)s1 do in these assays?
ARNT-TACC3 inh: -3; Yeast UUG start: 6

What do the screens show for `COC(=O)CCSCC(=O)Nc1nnc(C)s1`?
S100A4 inh HTS: 0; ERAP1 inh: 4; ARNT-TACC3 inh: -3; MLL AF4-AF9 inh: 27*; Yeast UUG start: -14

Results for Cn1cnnc1SCC(=O)NC1CCCCC1 ?
S100A4 inh HTS: 2; E-sel inducer: 0; ERAP1 inh: -1; ARNT-TACC3 inh: -8; MLL AF4-AF9 inh: -1; Yeast UUG start: -43

How did Cn1ccnc1SCC(=O)NC1CCCC1 do in these assays?
S100A4 inh HTS: -1; ERAP1 inh: 31*; ARNT-TACC3 inh: 21; MLL AF4-AF9 inh: 1; Yeast UUG start: -15

How did Cc1[nH]n(-c2ccccc2)c(=O)c1/C=N/n1c(C)nc2ccccc2c1=O do in these assays?
ARNT-TACC3 inh: 31*; Yeast UUG start: -27

What do the screens show for `Cc1ccc(-n2[nH]c(C)c(/C=N/n3c(C)nc4ccccc4c3=O)c2=O)cc1`?
S100A4 inh HTS: -2; ERAP1 inh: 4; ARNT-TACC3 inh: 24; Yeast UUG start: -3

Results for CCC(=O)NC(=S)NNC(=O)c1ccc(OC)cc1 ?
ARNT-TACC3 inh: 68*; Yeast UUG start: -29

How did CCCCOc1ccc(C(=O)NNC(=S)NC(=O)CC)cc1 do in these assays?
ARNT-TACC3 inh: 3

What do the screens show for `C[C@H](CO)N1C[C@H](C)[C@H](CN(C)C(=O)Nc2ccccc2)OCCCC[C@H](C)Oc2ccc(NS(=O)(=O)c3ccccc3)cc2C1=O`?
S100A4 inh HTS: -5; ERAP1 inh: 1; ARNT-TACC3 inh: -7; MLL AF4-AF9 inh: 0; Yeast UUG start: 31

4 entries drawn at random from those above, as already listed:
How did COc1cc(S(=O)(=O)Nc2ccc(C)cc2)ccc1N=Cc1c(C)[nH]n(-c2ccc(C)cc2)c1=O do in these assays?
S100A4 inh HTS: 1; E-sel inducer: 0; ERAP1 inh: -5; ARNT-TACC3 inh: -5; MLL AF4-AF9 inh: -3

What do the screens show for `Cc1ccc(-n2[nH]c(C)c(/C=N/n3c(C)nc4ccccc4c3=O)c2=O)cc1`?
S100A4 inh HTS: -2; ERAP1 inh: 4; ARNT-TACC3 inh: 24; Yeast UUG start: -3

Results for O=c1oc2ccc(Br)cc2cc1-c1nc2ccccc2o1 ?
S100A4 inh HTS: -1; ERAP1 inh: -1; ARNT-TACC3 inh: 3; MLL AF4-AF9 inh: -4; Yeast UUG start: 2

Results for CC1=CC(C)(C)N2C(=O)C(=O)c3cc(OC(=O)c4ccco4)cc1c32 ?
S100A4 inh HTS: 2; ERAP1 inh: 1; ARNT-TACC3 inh: 7; MLL AF4-AF9 inh: 31*
